# Target: multidrug resistance associated protein 4 (MRP4) (Homo sapiens, UniProt O15439)
# By UniProt entry, the sequences of proteins in these tests, tags left out. Where a name states a change or a piece, a line headed by the entry shows the natural chain unless it says otherwise.
# UniProt O15439: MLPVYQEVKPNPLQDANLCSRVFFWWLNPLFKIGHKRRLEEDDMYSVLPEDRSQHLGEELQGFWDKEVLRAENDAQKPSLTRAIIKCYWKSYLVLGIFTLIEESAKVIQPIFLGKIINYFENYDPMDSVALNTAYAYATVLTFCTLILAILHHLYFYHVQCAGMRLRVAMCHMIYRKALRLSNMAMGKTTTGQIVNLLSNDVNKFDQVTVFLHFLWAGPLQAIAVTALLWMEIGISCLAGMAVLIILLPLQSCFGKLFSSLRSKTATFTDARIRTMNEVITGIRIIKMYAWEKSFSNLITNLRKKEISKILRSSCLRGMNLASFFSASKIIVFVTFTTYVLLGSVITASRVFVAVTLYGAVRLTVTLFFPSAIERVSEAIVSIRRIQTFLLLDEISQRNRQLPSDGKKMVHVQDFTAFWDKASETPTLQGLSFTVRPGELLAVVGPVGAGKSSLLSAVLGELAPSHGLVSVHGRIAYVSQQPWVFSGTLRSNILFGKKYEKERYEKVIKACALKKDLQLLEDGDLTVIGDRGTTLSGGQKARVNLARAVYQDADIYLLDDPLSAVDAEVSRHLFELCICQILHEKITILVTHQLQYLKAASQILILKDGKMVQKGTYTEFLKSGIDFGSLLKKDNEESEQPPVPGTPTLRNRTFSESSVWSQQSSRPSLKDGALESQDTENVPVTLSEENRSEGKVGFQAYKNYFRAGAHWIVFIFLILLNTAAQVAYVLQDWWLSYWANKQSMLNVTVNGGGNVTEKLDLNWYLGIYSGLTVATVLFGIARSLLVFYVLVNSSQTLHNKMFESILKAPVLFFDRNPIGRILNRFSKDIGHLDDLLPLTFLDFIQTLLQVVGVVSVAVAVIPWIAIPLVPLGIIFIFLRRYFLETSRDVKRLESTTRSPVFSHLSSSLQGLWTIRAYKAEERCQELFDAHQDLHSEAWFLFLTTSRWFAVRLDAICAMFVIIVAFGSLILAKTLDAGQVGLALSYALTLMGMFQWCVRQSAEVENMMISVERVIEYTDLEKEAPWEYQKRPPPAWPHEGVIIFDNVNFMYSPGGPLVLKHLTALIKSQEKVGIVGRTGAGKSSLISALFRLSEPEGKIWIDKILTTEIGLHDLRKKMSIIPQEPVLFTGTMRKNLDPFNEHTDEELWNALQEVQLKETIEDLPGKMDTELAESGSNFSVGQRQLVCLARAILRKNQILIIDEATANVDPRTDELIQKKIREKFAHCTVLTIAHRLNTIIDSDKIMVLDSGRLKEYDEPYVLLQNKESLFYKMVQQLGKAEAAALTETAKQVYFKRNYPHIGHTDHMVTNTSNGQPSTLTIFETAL
# Format: biochemical
compound,measurement,value
CN(C)C(=O)CCSC(SCCC(=O)O)c1cccc(/C=C/c2ccc3ccc(Cl)cc3n2)c1 (stereo not shown) [MK-571],IC50,14.2 µM

# Reference: paper PMC8320619 (Current Research in Toxicology, 2020)
